Values quoted from earlier work as cited in patent publication US7361766B2, “Bicyclic heterocycles as cannabinoid receptor modulators” (Bristol-Myers Squibb Company, priority 2005, dated 2008).

Settings: chronic administration for two weeks

SMILES: Cc1c(C(=O)NN2CCCCC2)nn(-c2ccc(Cl)cc2Cl)c1-c1ccc(I)cc1 [AM-251]
- adipose tissue mass: decreased adipose tissue mass
